Experimental data taken from ChEMBL document CHEMBL5357012, “Dual N6/C7-Substituted 7-Deazapurine and Tricyclic Ribonucleosides with Affinity for G Protein-Coupled Receptors” (ACS Med Chem Lett, 2024).

Amino acid sequences for entries named in this document (tags omitted).
UniProt Q5BJF2, whole entry: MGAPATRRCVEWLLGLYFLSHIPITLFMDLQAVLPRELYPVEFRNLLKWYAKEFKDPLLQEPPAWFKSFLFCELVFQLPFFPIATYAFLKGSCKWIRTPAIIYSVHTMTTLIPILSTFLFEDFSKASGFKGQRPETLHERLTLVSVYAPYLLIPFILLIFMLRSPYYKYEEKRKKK

Biological target: Sigma intracellular receptor 2 (Homo sapiens) (UniProt Q5BJF2)
Test: Inhibition of human sigma 2 receptor at 10 uM by microbeta scintillation counting method relative to control

Structure (SMILES) | inhibition
OC[C@H]1O[C@@H](n2nc3c4c(ncnc42)N(Cc2ccccc2)C=C3)[C@H](O)[C@@H]1O | < 50%
OC[C@H]1O[C@@H](n2cc(C(F)(F)F)c3c(NCc4ccccc4)ncnc32)[C@H](O)[C@@H]1O | < 50%
OC[C@H]1O[C@@H](n2cc(C(F)(F)F)c3c(NCc4cccc(Cl)c4)ncnc32)[C@H](O)[C@@H]1O | < 50%
OC[C@H]1O[C@@H](n2cc(C(F)(F)F)c3c(NCc4ccc(Cl)cc4)ncnc32)[C@H](O)[C@@H]1O | < 50%
OC[C@H]1O[C@@H](n2cc(C(F)(F)F)c3c(NCc4ccccc4F)ncnc32)[C@H](O)[C@@H]1O | < 50%
